Data taken from patent US20110165156A1 (published 2011).
Numbering of substitutions follows the chain as printed.

What was measured:
[1] = biological target: human wildtype CSF-1R (wt CSF-1R), full-length, on cells (human, UniProt P07333 20-972); test: cell-based or functional assay
[2] = biological target: human mutant CSF-1R L301S Y969F, on cells (human, UniProt P07333 20-972); test: cell-based or functional assay
[3] = biological target: T1, human CSF-1R fragment delD4 (comprising the extracellular subdomains D1-D3 and D5) (human, UniProt P07333 20-512); test: SPR Biacore T100, 25 C, reference-subtracted signal 10 s after end of injection
T1 construct: Made from hCSF1R-delD4-V1-PreSc-hFc-His, released from the Fc with PreScission protease; also called hCSF-1R-delD4

B1: Mab 2E10 (antibody, V domains shown)
VH: QVQLKESGPGLVAPSKSLSITCTVSGSSLDSFDISWIRQSPGKGLEWLGVIWTGGGTNYNSGFMSRLRITKDNSKSQVLLKMNSLQSDDTAIYYCVRDPRLYFDVWGAGTTVTVSS
VL: NIVMTQSPKSMSMSVGERVTLSCKASEDVVTYVSWYQQKPDQSPKLLIYGASNRYTGVPDRFTGSGSATDFTLTISSVQAEDLADYYCGQTFSYPTFGTGTKLEIK
notes: Murine monoclonal antibody from a hybridoma
- wtCSF-1R IC50 (cell viability, 3D culture, CellTiterGlo) [1]: 0.49 µg/mL
- Mutant CSF-1R IC50 (cell viability, 3D culture, CellTiterGlo) [2]: 4.9 µg/mL
- binding signal (RU) before it was set as 0 [3]: -2 RU

B2: Mab 2H7 (antibody, V domains shown)
VH: B1 VH with S40P, T70S, L79F, N83S
VL: B1 VL with D41E, V78I
notes: as for B1
- wtCSF-1R IC50 (cell viability, 3D culture, CellTiterGlo) [1]: 0.31 µg/mL
- Mutant CSF-1R IC50 (cell viability, 3D culture, CellTiterGlo) [2]: 5.3 µg/mL
- binding signal (RU) before it was set as 0 [3]: -9 RU

B3: Mab 1G10 (antibody, V domains shown)
VH: RVQLKESGPGLVAPSQSLSITCTVSGFSLTSYDISWIRQSPGKGLEWLGVIWSGGGTNYNSPFMSRLRISKDDSRSQVFLKVNRLQTDDTAIYYCVRDLRLYFDVWGAGTTVTVSS
VL: B1 VL with N1K, M13V, T20S, V30G, D41E, A51S, Y87S, T91S, S93T
notes: as for B1
- wtCSF-1R IC50 (cell viability, 3D culture, CellTiterGlo) [1]: 0.29 µg/mL
- Mutant CSF-1R IC50 (cell viability, 3D culture, CellTiterGlo) [2]: 14.2 µg/mL
- binding signal (RU) before it was set as 0 [3]: -6 RU

B4: Mab 2F11 (antibody, V domains shown)
VH: B3 VH with R1Q, S31T, S53T, G54D, R68S, S70R, D73N, R75K, V82M, L99Q
VL: B1 VL with S22N, V30N, K39Q, D41E, S65G, A68T, Y87F, T91S
notes: Murine monoclonal antibody from a hybridoma; also called <CSF-1R>Mab 2F11; muMab 2F11
- wtCSF-1R IC50 (cell viability, 3D culture, CellTiterGlo) [1]: 1.1 µg/mL
- Mutant CSF-1R IC50 (cell viability, 3D culture, CellTiterGlo) [2]: 8 µg/mL
- binding signal (RU) before it was set as 0 [3]: -3 RU
